Reported melting point values for industrial, environmental and drug-like chemicals

From the experimental data distributed with OPERA 2.9.

Melting points are in °C.
The databases behind each value are named after "via".

Cc1nnc2ccc(Cl)nn12 [6-chloro-3-methyl[1,2,4]triazolo[4,3-b]pyridazine] is reported with melting point 104 °C (via OCHEM).
CCCCn1c(N)cc(=O)[nH]c1=O [6-Amino-1-butyl-1H-pyrimidine-2,4-dione] is reported with melting point 239 °C (via OCHEM).
O=C(O)c1ccc2c(=O)n3c(nc2c1)CCCCC3 is reported with melting point 277 °C (via OCHEM).
COC(=O)n1c(-c2cscn2)nc2ccccc21 [Methyl 2-(1,3-thiazol-4-yl)-1H-benzimidazole-1-carboxylate] is reported with melting point 124 °C (via OCHEM).
Cc1sc2ncnc(SCC(=O)O)c2c1C is reported with melting point 216 °C (via OCHEM).
COc1cccc(C(N)=O)c1O [2-hydroxy-3-methoxybenzamide] is reported with melting point 156 °C (via OCHEM).
CC(=O)C[C@H]1[C@@H](C(=O)O)C1(C)C (stereo in doubt) is reported with melting point 55.75 °C (via eChemPortal).
CC(C(=O)O)n1cccn1 (stereo not given) [2-(1H-Pyrazol-1-yl)propanoic acid] is reported with melting point 97 °C (via OCHEM).
CC(C)(C)N(NC(=O)c1ccccc1)C(=O)c1c(F)cccc1F is reported with melting point 194 °C (via OCHEM).
CCCCCCCCCCCCCCCCCC(=O)OC(C)C(=O)OC(C)C(=O)[O-].[Na+] (stereo not given) [Sodium stearoyl lactylate] is reported with melting point 55.95 °C (via eChemPortal).
Clc1ccc(Oc2ccccc2Cl)cc1 [2,4'-Dichlorodiphenyl ether] is reported with melting point 31 °C (via QSARDB).
Cc1ccc(C(N)=S)c(C)c1 [2,4-dimethylbenzenecarbothioamide] is reported with melting point 61 °C (via OCHEM).
NC(=O)c1ccc(F)c(N)c1 [3-Amino-4-fluorobenzamide] is reported with melting point 138 °C (via OCHEM).
COc1ccccc1NC(=O)c1ccc(N)cc1 [4-amino-N-(2-methoxyphenyl)benzamide] is reported with melting point 163 °C (via OCHEM).
CCOc1ccc(C(C)O)cc1 (stereo not given) [1-(4-Ethoxyphenyl)ethan-1-ol] is reported with melting point 46.5 °C (via OCHEM).
N#CCC1=NC(=O)CS1 [(4-Oxo-4,5-dihydro-1,3-thiazol-2-yl)acetonitrile] is reported with melting point 184 °C (via OCHEM).
Clc1cc(-c2ccccc2)c2ccccc2n1 [2-chloro-4-phenylquinoline] is reported with melting point 87 °C (via OCHEM).
Nc1cc2c(cc1[N+](=O)[O-])OCCCO2 [8-nitro-3,4-dihydro-2H-1,5-benzodioxepin-7-amine] is reported with melting point 75 °C (via OCHEM).
COC(=O)c1ccc(C=O)o1 [Methyl 5-formyl-2-furoate] is reported with melting point 80 °C (via OCHEM).
O=C(O)C=Cc1ccc(Br)cc1F [3-(4-Bromo-2-fluorophenyl)-2-propenoic acid] is reported with melting point 218.5 °C (via OCHEM).
COc1ccc2[nH]cc(C(=O)CC#N)c2c1 [3-(5-methoxy-1H-indol-3-yl)-3-oxopropanenitrile] is reported with melting point 290 °C (via OCHEM).
Nc1ccc(-c2cc3ccccc3o2)cc1 [4-(1-benzofuran-2-yl)aniline] is reported with melting point 282 °C (via OCHEM).
N#CCc1nnc2n1CCCCC2 is reported with melting point 114 °C (via OCHEM).
COC(=O)c1c(O)cc(=O)n2c1CCC2 is reported with melting point 168 °C (via OCHEM).
OCc1ccncn1 [(Pyrimidin-4-yl)methanol] is reported with melting point 76.5 °C (via OCHEM).
CCOC(=O)c1ccc(-n2c(C)nc3ccccc3c2=O)cc1 [ethyl 4-(2-methyl-4-oxoquinazolin-3(4H)-yl)benzoate] is reported with melting point 174 °C (via OCHEM).
CC(C)COC(=O)C1CCCCC1C(=O)OCC(C)C (stereo not given) is reported with melting point -22 °C (via eChemPortal).
Cc1ccccc1NC(=O)CC#N [2-cyano-N-(2-methylphenyl)acetamide] is reported with melting point 134 °C (via OCHEM).
COc1cc(CC(=O)O)ccc1C [2-(3-methoxy-4-methylphenyl)acetic acid] is reported with melting point 75 °C (via OCHEM).
CCCCCCCCCCOC(=O)C(CC)CCCC (stereo not given) [Decyl 2-ethylhexanoate] is reported with melting point -18 °C (via eChemPortal).
Cc1ccc(-c2nc(N)sc2-c2ccc(C)cc2)cc1 [4,5-Di-p-tolyl-thiazol-2-ylamine] is reported with melting point 154 °C (via OCHEM).
COc1cc(C)ccc1OCC(=O)O [(2-Methoxy-4-methyl-phenoxy)-acetic acid] is reported with melting point 119 °C (via OCHEM).
O=C(Nc1ccc(O)cc1)c1cccs1 [N-(4-hydroxyphenyl)thiophene-2-carboxamide] is reported with melting point 167 °C (via OCHEM).
COC(=O)c1ccc(C(Br)Br)cc1 [Methyl 4-(dibromomethyl)benzoate] is reported with melting point 43.5 °C (via OCHEM).
NNC(=O)c1ccc2ccccc2n1 [Quinoline-2-carbohydrazide] is reported with melting point 134 °C (via OCHEM).
C=CC(=O)NCOC [2-Propenamide, N-(methoxymethyl)-] is reported with melting point -7 °C (via eChemPortal).
CCOC(=O)CN(C(=O)CCl)c1ccccc1 [Glycine, N-(chloroacetyl)-N-phenyl-, ethyl ester] is reported with melting point 132 °C (via OCHEM).
CCOC(=O)C1CCCNC1=O (stereo not given) [3-Carbethoxy-2-piperidone] is reported with melting point 81 °C (via OCHEM).
O=S(=O)(Cl)c1ccc(Cl)nc1 [6-Chloropyridine-3-sulfonyl chloride] is reported with melting point 49 °C (via OCHEM).
Cn1ccnc1C(=O)c1ccc(N)cc1 [(4-aminophenyl)(1-methyl-1H-imidazol-2-yl)methanone] is reported with melting point 71 °C (via OCHEM).
NNC(=O)Cc1ccc2ccccc2c1 [2-(2-naphthyl)acetohydrazide] is reported with melting point 190 °C (via OCHEM).
Cc1cc(N)n(CCO)n1 [2-(5-Amino-3-methyl-1H-pyrazol-1-yl)ethan-1-ol] is reported with melting point 50 °C (via OCHEM).
Cc1cc(N)ccc1NS(C)(=O)=O [N-(4-amino-2-methylphenyl)methanesulfonamide] is reported with melting point 142 °C (via OCHEM).
O=C(CCl)Nc1nc2ccc(F)cc2s1 [2-Chloro-N-(6-fluoro-1,3-benzothiazol-2-yl)acetamide] is reported with melting point 171 °C (via OCHEM).
O=CNc1cccc(O)c1 [3-Formylaminophenol] is reported with melting point 116 °C (via OCHEM).
Nc1cccc(N2CCNC2=O)c1 [1-(3-Aminophenyl)imidazolidin-2-one] is reported with melting point 150 °C (via OCHEM).
O=C(CCl)Nc1ccc2c(c1)C(=O)c1ccccc1C2=O is reported with melting point 299 °C (via OCHEM).

6 of these entries, quoted again:

Listed for N#CCC1=NC(=O)CS1 [(4-Oxo-4,5-dihydro-1,3-thiazol-2-yl)acetonitrile]: melting point 184 °C (via OCHEM).
Listed for COc1cc(CC(=O)O)ccc1C [2-(3-methoxy-4-methylphenyl)acetic acid]: melting point 75 °C (via OCHEM).
Listed for CC(C(=O)O)n1cccn1 (stereo not given) [2-(1H-Pyrazol-1-yl)propanoic acid]: melting point 97 °C (via OCHEM).
Listed for Cc1nnc2ccc(Cl)nn12 [6-chloro-3-methyl[1,2,4]triazolo[4,3-b]pyridazine]: melting point 104 °C (via OCHEM).
Listed for COC(=O)n1c(-c2cscn2)nc2ccccc21 [Methyl 2-(1,3-thiazol-4-yl)-1H-benzimidazole-1-carboxylate]: melting point 124 °C (via OCHEM).
Listed for CCCCn1c(N)cc(=O)[nH]c1=O [6-Amino-1-butyl-1H-pyrimidine-2,4-dione]: melting point 239 °C (via OCHEM).

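OPERA's authors assembled the values from existing databases and did not measure them anew. The files give a single number for a compound and property, which may rest on several reports. Method and conditions are not stated for these values. The measured form (salt, isomer or mixture) is not always the one drawn. Some entries may be limits or estimates that an upstream database listed as plain numbers.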